In ChEMBL document CHEMBL4007427, “Inhibition of the Aldehyde Dehydrogenase 1/2 Family by Psoralen and Coumarin Derivatives” (J Med Chem, 2017) one finds Ki and Activity data, which are given here for two compounds.

Experiment [1] has as its target T1, Aldehyde dehydrogenase, mitochondrial (Homo sapiens, UniProt P05091).
T1 sequence (P05091 whole entry): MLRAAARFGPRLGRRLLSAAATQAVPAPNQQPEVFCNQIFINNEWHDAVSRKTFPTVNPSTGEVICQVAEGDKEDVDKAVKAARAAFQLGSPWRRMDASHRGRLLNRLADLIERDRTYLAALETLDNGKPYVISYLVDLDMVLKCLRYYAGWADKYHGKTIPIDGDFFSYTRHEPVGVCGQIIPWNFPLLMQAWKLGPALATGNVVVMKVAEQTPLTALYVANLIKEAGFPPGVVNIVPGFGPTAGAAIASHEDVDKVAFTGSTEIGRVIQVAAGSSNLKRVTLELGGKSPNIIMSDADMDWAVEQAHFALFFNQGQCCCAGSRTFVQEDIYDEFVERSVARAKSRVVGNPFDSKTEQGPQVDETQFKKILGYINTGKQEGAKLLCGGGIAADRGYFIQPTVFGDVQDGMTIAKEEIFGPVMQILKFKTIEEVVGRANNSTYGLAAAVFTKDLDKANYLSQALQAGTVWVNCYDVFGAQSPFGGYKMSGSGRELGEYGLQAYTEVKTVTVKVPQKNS

The target of experiment [2] is T1, Aldehyde dehydrogenase, mitochondrial. The source holds these as a separate data set.
Experiment [3] deals with T2, Aldehyde dehydrogenase, dimeric NADP-preferring (Homo sapiens) (UniProt P30838).
T2 sequence (whole entry): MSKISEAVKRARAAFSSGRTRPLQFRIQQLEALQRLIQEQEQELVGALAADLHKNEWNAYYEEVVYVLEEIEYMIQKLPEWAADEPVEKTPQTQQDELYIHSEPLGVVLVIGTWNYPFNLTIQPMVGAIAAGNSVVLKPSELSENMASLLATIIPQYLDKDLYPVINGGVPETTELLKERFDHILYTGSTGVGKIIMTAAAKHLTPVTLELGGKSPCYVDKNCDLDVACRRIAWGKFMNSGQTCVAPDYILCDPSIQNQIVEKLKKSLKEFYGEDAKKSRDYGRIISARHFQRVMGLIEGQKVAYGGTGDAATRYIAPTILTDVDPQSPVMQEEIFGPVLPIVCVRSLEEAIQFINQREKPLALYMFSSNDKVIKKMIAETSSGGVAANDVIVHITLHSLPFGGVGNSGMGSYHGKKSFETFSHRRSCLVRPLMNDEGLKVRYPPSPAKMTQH
Briefly: Inhibition of full length recombinant human ALDH3A1 expressed in Escherichia coli BL21(DE3) assessed as remaining dehydrogenase activity by measuring NAD(P)H level at 10 uM preincubated for 2 mins followed by addition of propionaldehyde as substrate in presence of NAD+ by spectrophotometric method.

For orientation: Ki means the dissociation constant of the complex between target and ligand, obtained from inhibition or displacement. A low value points to tighter binding. In the case of `Cc1oc2cc3oc(=O)c(C)c(C)c3cc2c1C`, the results for the Ki in experiment [1] and in experiment [2] were 35 nM and 87 nM, respectively.
For `COC(=O)C(C)Oc1ccc2c(C)cc(=O)oc2c1` (stereo not drawn), the Activity in experiment [3] is 94.5%.
